# Measured affinities in a library of Ab-14 heavy chain variants

Target: peptide PDVDLGDISGINAS, taken from heptad repeat 2 (HR2) of SARS-CoV-2 spike.

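This is the validation round: designs drawn from the data on random variants, tested in the same kind of assay. Several design methods are mixed in this list. AlphaSeq pools MATa yeast showing the antibodies with MATalpha yeast showing the peptide. The frequency of each diploid, read from paired DNA barcodes, reflects how well the two displayed proteins bind. Read counts were normalised to the haploid input and turned into Kd by a linear fit to BCL2-family pairs of known affinity, for each replicate. Each pool was mated in six replicate cultures.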

Ab-14 is the parent antibody, in scFv form: VH, then the linker GGGGSGGGGSGGGGS, then VL. The light chain is unchanged in all variants.
VH: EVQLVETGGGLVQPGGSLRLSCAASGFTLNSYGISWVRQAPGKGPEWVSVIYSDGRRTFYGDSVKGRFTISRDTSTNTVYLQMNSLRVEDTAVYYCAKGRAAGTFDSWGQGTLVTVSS
VL: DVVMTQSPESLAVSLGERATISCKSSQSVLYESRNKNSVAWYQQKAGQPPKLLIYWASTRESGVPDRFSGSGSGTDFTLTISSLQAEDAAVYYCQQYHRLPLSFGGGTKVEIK

Positions count from residue 1 of the parent VH; R100N puts N in place of R.
Variants here have at most six changes.
The read-out is the apparent dissociation constant on a log10 scale (nM): the lower, the stronger.
"ND" means that the variant was in the library but no mating with the target was seen in that replicate; the authors take this as a sign of poor binding, and no number exists.
Values of this round are not directly comparable with the first-round values of the same sequences.
The authors averaged sequences with at least three values out of six and counted those with two or fewer as poor binders.
The parent sequence was in this pool as ten entries: three were never detected, three once, and four in most replicates, with averages from 0.34 to 2.37.
Nonspecific signal, from three strains lacking the peptide, appeared in 1% of pairings of all heavy chain designs, centred on 2.08 (5% of these signals below 0.84); values are not corrected for it. The control count says in how many pairings with the empty strains this scFv gave a signal.
A sequence that the file lists under several names has all its replicates listed entry by entry, parted by semicolons.

R100N/A101L: 1.12, 0.65, 1.00, 0.90, 1.69, 0.97 (controls 0 of 18).
F27N/L29G/S53A/F59M/F105N/D106K: ND, ND, ND, ND, ND, ND (controls 0 of 18).
S53A/S107L: 0.45, 0.23, 0.08, 0.31, 0.50, 0.52; 0.29, -0.18, 0.61, -0.34, -0.06, -0.26 (controls 0 of 36).
T28N/F59A: 1.52, 0.89, 1.03, 0.87, 1.85, 0.67 (controls 0 of 18).
T28S/S31E/F59M/G61T/A101C: 1.66, 2.85, 2.07, 1.86, 1.50, ND (controls 0 of 18).
T28S/S31E/Y60M/A101T: 0.49, -0.08, 0.16, -0.11, 0.05, 0.42 (controls 0 of 18).
F27Y/S31D/F59E/G61S: ND, ND, ND, ND, ND, 3.19 (controls 2 of 18).
N30E/T104Q: ND, ND, ND, ND, ND, ND (controls 0 of 18).
G61S/D62Q/R100V/A101E: 0.93, 0.71, 0.52, 0.79, 0.63, 0.90 (controls 0 of 18).
R56K/S63A/A101T/D106W: ND, ND, ND, ND, ND, ND (controls 0 of 18).
T58L: ND, ND, ND, ND, ND, ND (controls 0 of 18).
T28D/G61A/S63D/A101E: 0.30, 0.14, -0.08, 0.06, 0.04, 0.09 (controls 1 of 18).
F27L/T28N/G61K: 0.48, 0.21, 0.07, 0.25, 0.44, 2.29 (controls 0 of 18).
G61S/R100Q/A101E/S107A: -0.10, 0.15, 0.05, -0.35, -0.30, 0.14 (controls 0 of 18).
T28S/G61I/R100Q: 1.01, 0.19, 1.07, 0.03, 0.21, 1.00 (controls 2 of 18).
T28S/R100N/S107K: 0.36, 0.51, 0.14, 0.95, 0.47, 0.34 (controls 0 of 18).
T28S/G61V/R100K/A101V: 0.81, 1.04, ND, 0.43, 0.55, 1.07 (controls 0 of 18).
T28F/S31E/R100Q/S107L: ND, ND, ND, ND, ND, 1.07 (controls 0 of 18).
N30D/G99S: ND, ND, ND, ND, ND, ND (controls 0 of 18).
T28S/G61A/S63H/R100Q/A101T: 2.47, 0.86, 1.17, 1.67, 0.08, 1.00 (controls 0 of 18).
G61S/R100A/A101L: 1.31, 0.33, 0.49, ND, 0.95, 2.74 (controls 0 of 18).
G26R/I34C/S53M/S107W: ND, ND, ND, ND, ND, ND (controls 0 of 18).
R56W/G61V/R100H/A101V: ND, ND, ND, ND, ND, 1.86 (controls 0 of 18).
S31E/G61T/R100Q/A102S/S107T: 1.32, 1.37, 0.42, 0.52, 1.09, 0.82 (controls 0 of 18).
G61S/S63A/R100E/S107T: 1.30, ND, ND, ND, ND, ND (controls 0 of 18).
R56K/R100Q/A101T/S107L: ND, 0.61, ND, -0.18, ND, ND (controls 0 of 18).
F27D/S53F/A102Q/F105D/S107P: ND, ND, ND, ND, ND, ND (controls 0 of 18).
T28N/T58S/G61A/A101E: 0.94, 0.44, 0.42, 0.03, 0.49, 0.25 (controls 0 of 18).
T28D/S31E/S53A/G61L/R100Q/A101V: -0.41, -0.60, -0.65, -0.65, -0.72, -0.23 (controls 0 of 18).
T28L/S31D/G61K/G103S/D106I: ND, ND, ND, ND, ND, ND (controls 0 of 18).
T28S/A101T/S107M: 0.60, 0.34, 0.35, 0.35, 0.28, 0.25 (controls 0 of 18).
T28Q/F59V: ND, 0.96, ND, 1.31, ND, 1.26 (controls 0 of 18).
F27Y/G61S/V64M/G99C/A102G: ND, ND, ND, ND, ND, ND (controls 0 of 18).
S35H: ND, ND, ND, ND, ND, ND (controls 2 of 18).
T28N/G61H/R100Q/A101T: 0.21, 0.19, 0.28, 0.28, 0.18, 0.25 (controls 1 of 18).

From the list, the first 6 with no signal in any replicate:

{"changes": "F27N/L29G/S53A/F59M/F105N/D106K", "log10 Kd (nM) by replicate": "ND, ND, ND, ND, ND, ND", "empty controls": "0/18"}
{"changes": "N30E/T104Q", "log10 Kd (nM) by replicate": "ND, ND, ND, ND, ND, ND", "empty controls": "0/18"}
{"changes": "R56K/S63A/A101T/D106W", "log10 Kd (nM) by replicate": "ND, ND, ND, ND, ND, ND", "empty controls": "0/18"}
{"changes": "T58L", "log10 Kd (nM) by replicate": "ND, ND, ND, ND, ND, ND", "empty controls": "0/18"}
{"changes": "N30D/G99S", "log10 Kd (nM) by replicate": "ND, ND, ND, ND, ND, ND", "empty controls": "0/18"}
{"changes": "G26R/I34C/S53M/S107W", "log10 Kd (nM) by replicate": "ND, ND, ND, ND, ND, ND", "empty controls": "0/18"}

The measurements come from Li et al. 2023 (doi:10.1038/s41467-023-39022-2) through the FLAb antibody collection.